Test results: US5084454A, “2-(piperidinylmethyl)-4-phenyl-2,3-dihydro-4H-1,4-benzoxazines useful as antipsychotics” (Farmitalia Carlo Erba S.r.l., priority 1988, dated 1992)
Read-outs that look alike come from different tables or passages of the source.

What was measured:
[1] = system: cataleptic activity in the mouse; conditions: in vivo, po; for ED50 Catalepsy: 6 h
[2] = system: apomorphine-induced climbing behaviour in mice; experiment: antagonism of apomorphine-induced climbing behaviour in mice; assay type: in vivo, mouse; conditions: for ED50 Climbing: oral; for ED50: Mus musculus, po
Procedure: The activity of the compounds of the present invention on the central nervous system was also evaluated by following for instance the technique of Protais P. et al. (Psychopharmacology, 50, 1 (1976).
The toxicity of the compounds of the invention is negligible, therefore they can be safely used in therapy. Nine hours food deprived mice were treated orally with single administration of increasing doses, then housed and normally fed. The orientative acute toxicity (LD50) was assessed on the seventh day after the treatment and resulted, in general, higher than 600 mg/kg. Following Table 2 summarizes the biological data obtained according to the above mentioned tests for some compounds of the present invention; Haloperidol has been evaluated in the same tests for comparative purposes.

5HT2 serotonine receptor = target: T1, 5HT2 serotonine receptor (Rattus norvegicus, UniProt P14842); experiment: 5HT2 serotonine receptor binding affinity, [3H]Ketanserine; conditions: read-out: IC50 5HT2 [3H]Ket.
T1 construct: from tissue
Procedure: The activity of the compounds of the present invention was evaluated for example in a series of receptorial binding affinity tests.
J. Pharmacol. 1977, 46, 377; Hyttel, J. Life Sci. 1981, 28, 563; Pedigo et al. Journal of Neurochemistry, 1981, 36, 220; Leysen et al. Molecular Pharmacology, 1981, 21, 301; Battaglia et al. Life Science, 1983, 33, 2011; Greengrass P., Brener R. Eur. J. Pharmacol., 1979, 55, 323; and Perry B. D., U'Prichard D. C. Eur. J. Pharmacol. 1981, 76, 461]
In the table cis-Flu. means cis-Flupenthixol; Spip. means Spiperone; Serot. means Serotonin; Ket. means Ketanserine; Praz. means Prazosin and Yohim. means Yohimbine, respectively. The above internal FCE codes refer to the following compounds

D1 dopamine receptor = target: T2, D1 dopamine receptor (Rattus norvegicus, UniProt P18901); experiment: D1 dopamine receptor binding affinity, [3H]cis-Flupenthixol; conditions: read-out: IC50 D1 [3H]cisFlu.
T2 construct: from tissue

D2 dopamine receptor = target: T3, D2 dopamine receptor (Rattus norvegicus, UniProt P61169); experiment: D2 dopamine receptor binding affinity, [3H]Spiperone
T3 construct: from tissue

in vivo [3] = conditions: mouse, po
in vivo [4] = conditions: mouse, po, ED50 Catalepsy
mice = conditions: datum given according to Il Farmaco Ed. Sc. 1976, 31, 442; 10080 min; cited from earlier work

Row | SMILES | ED50 Catalepsy [1] [mg/kg] | ED50 Climbing [2] [mg/kg/os] | IC50 (5HT2 serotonine receptor) [nM] | IC50 (D1 dopamine receptor) [nM] | IC50 (D2 dopamine receptor; IC50 D2 [3H]Spip.) [nM] | LD50 at 168 h (in vivo [3]) [mg/kg] | (ED50 Catalepsy / ED50 Climbing) [1] | IC50 (D2 dopamine receptor; read-out: IC50 D2 [3H]Spip.) [nM] | ED50 [2] [mg/kg] | ED50 at 6 h (in vivo [4]) [mg/kg] | LD50 (mice) [mg/kg/os]
1 | O=C1NCN(c2ccccc2)C12CCN(CC1CN(c3ccccc3)c3ccccc3O1)CC2 (single isomer, unassigned; (+)) [FCE 25895, (+) 2-(1-phenyl-1,3,8-triazaspiro[4,5]decan-4-one-8-yl)-methyl-4-phenyl-2,3-dihydro-4H-1,4-benzoxazine] | 61 | 3.8 | 6 | 1200 | 5 | – | – | – | – | – | –
2 | O=C1NCN(c2ccccc2)C12CCN(CC1CN(c3ccccc3)c3ccccc3O1)CC2 (single isomer, unassigned; (-)) [FCE 25896, (-) 2-(1-phenyl-1,3,8-triazaspiro[4,5]decan-4-one-8-yl)-methyl-4-phenyl-2,3-dihydro-4H-1,4-benzoxazine] | 22.7 | 1.8 | 80 | > 10000 | – | > 800 | 12.6 | 200 | – | – | –
3 | O=C1NCN(c2ccccc2)C12CCN(CC1CN(c3ccccc3)c3ccccc3O1)CC2 (centres unmarked) [FCE 24867, 2-(1-phenyl-1,3,8-triazaspiro[4,5]decan-4-one-8-yl)-methyl-4-phenyl-2,3-dihydro-4H-1,4-benzoxazine] | – | – | 40 | 1400 | 8 | – | – | – | 4.5 | 30.8 | –
4 | O=C1NCN(c2ccccc2)C12CCN(CC1CN(c3ccc(F)cc3)c3ccc(F)cc3O1)CC2 (centres unmarked) [FCE 25452, 2-(1-phenyl-1,3,8-triazaspiro[4,5]decan-4-one-8-yl)-methyl-4-(4-fluorophenyl)-7-fluoro-2,3-dihydro-4H-1,4-benzoxazine] | – | – | 20 | 900 | 9 | – | – | – | – | – | –
5 | OC1(c2cccc(C(F)(F)F)c2)CCN(CC2CN(c3ccccc3)c3ccccc3O2)CC1 (centres unmarked) [FCE 25456, 2-[4-(3-trifluoromethyl-phenyl)-4-hydroxy-piperidin-1-yl]-methyl-4-phenyl-2,3-dihydro-4H-1,4-benzoxazine] | – | – | 100 | > 10000 | 1 | > 800 | 8 | – | 2.5 | 20 | –
6 | O=C1NCN(c2ccccc2)C12CCN(CC1CN(c3ccc(F)cc3)c3ccccc3O1)CC2 (centres unmarked) [FCE 25676, 2-(1-phenyl-1,3,8-triazaspiro[4,5]decan-4-one-8-yl)-methyl-4-(4-fluorophenyl)-2,3-dihydro-4H-1,4-benzoxazine] | – | – | 20 | 1000 | 2 | – | – | – | 4.9 | 75 | –
7 | O=C1NCN(c2ccccc2)C12CCN(CC1CN(c3ccccc3)c3ccc(F)cc3O1)CC2 (centres unmarked) [FCE 25848, 2-(1-phenyl-1,3,8-triazaspiro[4,5]decan-4-one-8-yl)-methyl-4-phenyl-7-fluoro-2,3-dihydro-4H-1,4-benzoxazine] | – | – | 30 | 2400 | 40 | – | – | – | – | – | –
8 | O=C(CCCN1CCC(O)(c2ccc(Cl)cc2)CC1)c1ccc(F)cc1 [Haloperidol, reference compound] | – | – | – | – | – | – | – | – | 0.5 | 2.2 | 71
